Values quoted from earlier work, collected in patent publication US20230372437A1, “COMPOSITIONS AND METHODS FOR THE TREATMENT OF HAIR LOSS AND OTHER CONDITIONS” (ProTransit Nanotherapy LLC, priority 2020, published 2023).

Tested on: normal scalp
Conditions: topical

Nc1cc(N2CCCCC2)nc(N)[n+]1[O-] [minoxidil]
Topically applied minoxidil absorbed through a normal scalp: about 1.7%
